In the assay the target is TR construct of eukaryotic elongation factor 2 kinase (eEF-2K) (UniProt O00418). The assay can be described thus: native MS.

As usually defined, the stoichiometry N is a count of units in the complex or per binding partner. Take “Calmodulin (Ca2+-CaM) (from UniProt P0DP23 2-149) (natural protein)”: the stoichiometry N is 1.

The values are drawn from paper PMC6474356.
